Measured values: paper PMC2096194 (Nature structural & molecular biology, 2007)

Target: RAD51 80-339 (UniProt Q06609)
Test: biotin-peptide streptavidin pull-down, anti-RAD51 blot
Settings: reference: unphosphorylated BRCA2Exon 27 peptide; sites S3291

**Q.** How did the “binding against the reference” value turn out when “BRCA2 3270-3305 (from UniProt P51587) pS3291 peptide (BRCA2Exon 27-Ph)” was run?
**A.** Its value is “lost”.
